## Ab-14 light chain CDR variants: yeast mating affinities

Target peptide (SARS-CoV-2 spike, HR2 region): PDVDLGDISGINAS

Ab-14 is the parent antibody, in scFv form: VH, then a 15-residue (Gly4Ser)3 linker, then VL. The heavy chain is unchanged in all variants.
VH: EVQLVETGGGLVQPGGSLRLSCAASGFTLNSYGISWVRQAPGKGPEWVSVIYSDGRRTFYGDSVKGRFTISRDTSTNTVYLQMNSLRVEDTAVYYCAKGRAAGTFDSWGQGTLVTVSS
VL: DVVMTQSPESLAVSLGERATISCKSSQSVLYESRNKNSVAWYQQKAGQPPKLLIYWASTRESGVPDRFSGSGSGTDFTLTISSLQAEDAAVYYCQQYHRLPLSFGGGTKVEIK

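The parent was found by panning a naive human phage display library on the peptide. Variants in AAYL50 differ from the parent at up to three CDR positions; double and triple changes were sampled at random. The scFvs were displayed on barcoded MATa yeast, the peptide on MATalpha yeast. After mating in shaken culture at 30 °C for 16 h, diploids were selected and their barcode pairs sequenced. The ratio of observed to expected reads was calibrated, replicate by replicate, on BCL2-family standards whose Kd was known from biolayer interferometry. The assay was run in three technical replicates.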

The parent's light chain CDRs are KSSQSVLYESRNKNSVA, WASTRES, QQYHRLPLS; each variant's own CDRs replace them letter for letter.
The read-out is the apparent dissociation constant on a log10 scale (nM): the lower, the stronger.
A mean of the replicates is given; it leaves out those without a signal.
"no signal" means that the variant was in the library but no mating with the target was seen in any replicate; the authors take this as a sign of poor binding, and no number exists.
Nonspecific signal, from three strains lacking the peptide, appeared in 18% of pairings of library AAYL50, centred on 4.19 (5% of these signals below 2.99); values are not corrected for it. For each scFv, signals with the empty controls are counted beside the result.

CDR-L1	CDR-L2	CDR-L3	mean log10 Kd (nM)	detected	signal with controls
KSSQSVLVEMRNKNSMA	WASTRES	QQYHRLPLS	5.54	1 of 3	2 of 9
KSSQSVLYESRNSNSVA	WASGRES	QQYHRLPSS	4.49	2 of 3	2 of 9
KSSQDVLYESRNENSVA	WASTVES	QQYHRLPLS	1.29	3 of 3	2 of 9
KSSQSVLYESRNKNSVA	WASTRGS	QQLHVLPLS	no signal	0 of 3	0 of 9
RSSQSVLYESRNKNSVA	WASTHES	QQYHRLPNS	no signal	0 of 3	0 of 9
KSGQSVLLESRNKNSVA	WASTRES	QQYHRLNLS	no signal	0 of 3	0 of 9
KSWQSVLYESRNKNSVA	WASTLES	QQYHRLPLS	2.98	2 of 3	1 of 9
HSSQSVLYLSRNKNSVA	WASTRES	QQVHRLPLS	no signal	0 of 3	0 of 9
NSSSSVLYESRNKNSVA	WASTSES	QQYHRLPLS	no signal	0 of 3	0 of 9
KSSQSVLYESRNKNSVW	WASTRES	QVYFRLPLS	no signal	0 of 3	2 of 9
KSSQSVLYEGRNKNSQA	WASTRES	QQYERLPLS	3.24	1 of 3	1 of 9
KSSQFVLYESENKNSVA	WASTRES	QQYHILPLS	0.77	3 of 3	0 of 9
KSSQSVLSESRNKNSEA	WLSTRES	QQYHRLPLS	no signal	0 of 3	3 of 9
KGSQNVLYESYNKNSVA	WASTRES	QQYHRLPLS	1.20	3 of 3	1 of 9
KSSQSVLYESVNKNSVA	WASTRES	EQYHRLDLS	1.65	3 of 3	1 of 9
KSSQSVLYELRNKLSPA	WASTRES	QQYHRLPLS	no signal	0 of 3	1 of 9
KSSQSVLYESRNKNSPA	WASTRES	QQWHDLPLS	no signal	0 of 3	0 of 9
KSSSSNLYESRNKNSVA	WALTRES	QQYHRLPLS	3.08	1 of 3	2 of 9
KSSQSVLYESRNPNSVC	WASLRES	QQYHRLPLS	no signal	0 of 3	0 of 9
KSSQSRLYESRNKNSVA	WASTREY	RQYHRLPLS	2.25	3 of 3	1 of 9
KSSQSVLYESRGKNWVA	WASTRDS	QQYHRLPLS	no signal	0 of 3	1 of 9
KSSQSVLRDSRNKNSVA	WAQTRES	QQYHRLPLS	2.13	3 of 3	3 of 9
KSSQSVLYESRNKNSVA	WAWTRES	QWYHRVPLS	5.18	1 of 3	0 of 9
KPSQSVLYESRNKVSVA	WASTRTS	QQYHRLPLS	4.70	2 of 3	3 of 9
KSIQRVLYESRNKNSVA	WNSTRES	QQYHRLPLS	2.25	1 of 3	0 of 9
KSSQSVLYEERNKNSVA	WASTRES	QQYHNLPPS	3.29	1 of 3	0 of 9
KPSQSVLYEWRNKNSVM	WASTRES	QQYHRLPLS	2.92	1 of 3	1 of 9
KSSQSVLYESRWFESVA	WASTRES	QQYHRLPLS	4.52	1 of 3	0 of 9
KSSQSVLYEKRNKNPVA	WASTREG	QQYHRLPLS	3.02	3 of 3	1 of 9
KSSQSVIYESRNMNSVA	WASTRES	QIYHRLPLS	2.00	3 of 3	0 of 9

Second part, the sequence after the result:

mean log10 Kd (nM)	detected	signal with controls	CDR-L1	CDR-L2	CDR-L3
1.48	3 of 3	0 of 9	LSSQSVLWESRNKNSVA	WASTRES	QQYHHLPLS
2.27	3 of 3	0 of 9	KSWYSVLYESRNKNSMA	WASTRES	QQYHRLPLS
1.56	3 of 3	2 of 9	KSSQSVLYESHVKNSVA	WASTRFS	QQYHRLPLS
5.56	1 of 3	2 of 9	PSSQSVLYESRNKNSVA	IASTRES	QQYHRLVLS
1.62	3 of 3	1 of 9	ISSQSVLYESRNKNSVA	WASLRES	WQYHRLPLS
no signal	0 of 3	0 of 9	KSSQSVLYESPNKPSVA	WASTRES	QQYHRLPLS
1.06	3 of 3	0 of 9	KSHQMVDYESRNKNSVA	WASTRES	QQYHRLPLS
1.82	3 of 3	2 of 9	KSSQSVLYESRNKQSVA	WASTRES	QQYHRLPLV
-0.20	3 of 3	0 of 9	KSSQSVLKNSRNKNSVA	EASTRES	QQYHRLPLS
3.69	1 of 3	2 of 9	KSSQIVLYEERNKNSVA	WAMTRES	QQYHRLPLS
3.98	2 of 3	3 of 9	KSSQCVLYESRNKDSVA	WASTRES	QTYHRLPLS
2.49	3 of 3	0 of 9	KSSMSVLCESRNKNSVA	WASTREH	QQYHRLPLS
no signal	0 of 3	1 of 9	KSSQSVLYESQNGNSDA	WASTRES	QQYHRLPLS
2.92	3 of 3	5 of 9	GSSQSVLYESRNKNSVA	WASTRHS	QQYHRLSLS
4.14	1 of 3	3 of 9	KSSQSVLYESRQKNSVA	WASTRES	QQYMRLPLS
0.76	3 of 3	1 of 9	KSSQSWLQESRNKNSVA	WASTREH	QQYHRLPLS
2.75	3 of 3	0 of 9	KSSQSVLYESRNKNSVA	WASLRES	SQYHRLPLG
no signal	0 of 3	1 of 9	KSSISVLYESRNKNIVA	WASTREE	QQYHRLPLS
3.34	3 of 3	2 of 9	KSWQSVLYESKNKNSVA	WASTREK	QQYHRLPLS
4.85	1 of 3	0 of 9	KSSQSVLYESRNKNSVA	KASTQES	QQYHRLYLS
2.02	3 of 3	1 of 9	KSSQSVLLESRNKNSVA	WASTAES	QQYHRLPDS
2.26	3 of 3	2 of 9	QSSQSALYESRNKNSVA	WASTRES	QQYHRLPLQ
6.25	1 of 3	4 of 9	KSSQSVLYESRNKNSVA	WASTREY	CQYHGLPLS
no signal	0 of 3	0 of 9	KSSQSVCYKSRNKNSVA	WASTRFS	QQYHRLPLS
no signal	0 of 3	2 of 9	KSSQSVLYESRNKNSVA	WASTRES	QQQHRLPLN
4.22	3 of 3	3 of 9	KSSQSVLYESRNKNSVA	WASERRS	QMYHRLPLS
5.47	1 of 3	2 of 9	MSSQSVLYESRNKNSSA	WASTRES	QQYHWLPLS
4.58	2 of 3	5 of 9	KSSQSVLYESRNKNSDA	WASTRES	DQYHRPPLS
no signal	0 of 3	0 of 9	KSSQSVLYESRNKNSVA	WAVTRNS	QQYHRLPLS
no signal	0 of 3	0 of 9	KSSQSVLYESRNKNSVA	WASTRES	TQYHFLPLS

Parent in this assay: reference entry 0.65, copy in this library 1.68.

Source: Engelhart et al. 2022 (doi:10.1038/s41597-022-01779-4), MIT Lincoln Laboratory and A-Alpha Bio; data file from the FLAb repository.